The source of these data is publication PMC2920814 (PLoS ONE, 2010).

SMILES strings stand for the structures.

This data set concerns transient focal cerebral ischemia (tMCAo) in rats. As to the kind of experiment: Transient middle cerebral artery occlusion (tMCAo) 90 min, Neurokin study, infarct volumes by TTC staining. The conditions noted are these: 90 min tMCAo; p = 0.31, Fisher exact test.

Regarding `CC[C@@H](CO)Nc1nc(NCc2ccccc2)c2ncn(C(C)C)c2n1` [(S)-roscovitine], the “animal mortality versus vehicle group” value was “No significant difference”.
